AlphaSeq binding of Ab-14 heavy chain variants to a spike HR2 peptide

Target peptide (SARS-CoV-2 spike, HR2 region): PDVDLGDISGINAS

Parent: Ab-14, a human scFv built as VH, the linker GGGGSGGGGSGGGGS, VL. Only the CDRs of the heavy chain vary.
VH: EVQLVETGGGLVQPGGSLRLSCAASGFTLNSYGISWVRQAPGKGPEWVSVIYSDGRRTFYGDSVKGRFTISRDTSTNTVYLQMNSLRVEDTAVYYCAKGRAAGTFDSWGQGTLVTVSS
VL: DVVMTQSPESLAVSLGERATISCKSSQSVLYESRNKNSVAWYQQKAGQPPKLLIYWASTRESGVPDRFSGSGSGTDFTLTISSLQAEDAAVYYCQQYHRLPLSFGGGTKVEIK

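Designed CDR sequences, proposed from the first random library and measured here. Several design methods are mixed in this list. In AlphaSeq, yeast of one mating type display the scFv and yeast of the other type display the target. Mating (16 h, 30 °C) was followed by selection of diploids and sequencing of their barcodes. Each replicate has its own calibration line, from reference interactions of the BCL2 family. There are six technical replicates.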

The parent's heavy chain CDRs are GFTLNSYGIS, VIYSDGRRTFYGDSVK, GRAAGTFDS; each variant's own CDRs replace them letter for letter. Variants here have more than six changes. Kd is apparent (estimated from mating counts) and averaged on the log scale over replicates with a signal. Smaller is tighter. An entry "nd" has no value in the source: the pair was not observed among the diploids in any replicate. This suggests poor binding but is not conclusive.

Variant GFDLNEYGIS / VIYADGRRTAYADDVK / GNQAGTFDM showed 370 pM (6 of 6 replicates; controls 0 of 18).
Variant GFDLDEYGIS / VIYADGMRTFYADSVK / GNIAGTFFS showed 380 pM (6 of 6 replicates; controls 0 of 18).
Variant GFNLDEYGIS / VIYADGVRKAYSSKVK / GVVHWFNLQ showed nd (0 of 6 replicates; controls 0 of 18).
Variant GFTLDEYGIS / VIYADGQRTAYTDDVK / GQYGGIGYI showed nd (0 of 6 replicates; controls 1 of 18).
Variant GFDINEYGIS / VIYADGRRVYYADDVK / GKNLENFSF showed nd (0 of 6 replicates; controls 0 of 18).
Variant GFDIEDYGIS / VIYADGMRSSYSNSFK / GLQSGNISV showed 510 nM (2 of 6 replicates; controls 2 of 18).
Variant GFDLNEYGIS / VIYADGVRTAYADDVK / GEVAGTFDL showed 770 pM (6 of 6 replicates; controls 0 of 18).
Variant GFDLNEYGIS / VIYADGQRTAYADNVK / GNNAGTFDV showed 37 nM (4 of 6 replicates; controls 0 of 18).
Variant GFVFDEYGIS / VIYADGKRQFYQDKVK / GENTGNFDI showed nd (0 of 6 replicates; controls 0 of 18).
Variant GFDLQEYGIS / VIFADGLRTAYSDKVK / GQINGYFVD showed nd (0 of 6 replicates; controls 0 of 18).
Variant GFDLEEYGIS / VIYADGRRVAYADSVK / GIDVYGKVM showed 280 nM (1 of 6 replicates; controls 1 of 18).
Variant GFDLQEYGIS / VIYADGKRTKVTDNVK / GEVTGTAFT showed 73 nM (1 of 6 replicates; controls 0 of 18).
Variant GFDLDEYGIS / VIYADGKRTAYSDSVK / GNEAGTFDV showed 960 pM (6 of 6 replicates; controls 0 of 18).
Variant GFDLNEYGIS / VIYADGSRTAYADSVK / GGNAGTFDV showed 1.5 nM (6 of 6 replicates; controls 0 of 18).
Variant GFDLEAYGIS / VIYADGVRTGYVNKVK / GDTGGMFDD showed 39 nM (2 of 6 replicates; controls 1 of 18).
Variant GFDLNEYGIS / VIYADGLRSAYTDEVK / GKGDVIVFH showed nd (0 of 6 replicates; controls 0 of 18).
Variant GFVLDEYGIS / VIYADGMRTVYAEDFK / GQTAGNFHH showed nd (0 of 6 replicates; controls 0 of 18).
Variant GFDLNEYGIS / VIYADGRRTAYADDVK / GEVAGTFDV showed 360 pM (6 of 6 replicates; controls 0 of 18).
Variant GFDLNEYGIS / VIYADGLRTFYTDSVK / GEFAGTFDQ showed 10 nM (6 of 6 replicates; controls 0 of 18).
Variant GFSLDEYGIS / VIYADGARAAYTNDFK / GNITGVFGK showed 83 nM (1 of 6 replicates; controls 0 of 18).
Variant GFDLNEYGIS / VIYADGVRTAYLDSVK / GEAAGTFDS showed 370 pM (6 of 6 replicates; controls 0 of 18).
Variant GYDLVEYGIS / VIYADGQRTMYADTVK / GHHGGIIDM showed nd (0 of 6 replicates; controls 1 of 18).
Variant GFDLEEYGIS / VIYADGRRKQYTDAVK / GKFLVMMTV showed nd (0 of 6 replicates; controls 0 of 18).
Variant GFDLGEYGIS / VIYADGHRRAYSDNVK / GAHSGSVQT showed nd (0 of 6 replicates; controls 1 of 18).
Variant GFNLNEYGIS / VIYADGMRTFYSDSVK / GETAGTFDV showed 260 pM (6 of 6 replicates; controls 0 of 18).
Variant GFDLNEYGIS / VIYADGMRTAYADDVK / GGNAGTFDV showed nd (0 of 6 replicates; controls 1 of 18).
Variant GFDLNEYGIS / VIYADGRRTFYDDSVK / GQLAGTFDV showed 230 pM (6 of 6 replicates; controls 1 of 18).
Variant GFDLNEYGIS / VIYADGMRTAYIDSVK / GTNAGTFDI showed 430 pM (6 of 6 replicates; controls 0 of 18).
Variant GFDLNEYGIS / VIYADGQRTAYSDSVK / GQNAGTFDI showed 170 pM (6 of 6 replicates; controls 0 of 18).
Variant GFDLNEYGIS / VIYADGRRTAYADSVK / GEVAGTFDV showed 1.3 nM (6 of 6 replicates; controls 0 of 18).
Variant GFDLNEYGIS / VIYADGKRTAYAESVK / GEVAGTFDV showed 380 pM (6 of 6 replicates; controls 0 of 18).
Variant GFTLNSYGIL / VIYADGRRTIHGDGVK / GRAAGTNKS showed nd (0 of 6 replicates; controls 0 of 18).
Variant GFDLNEYGIS / VIYADGRRTFYADSVK / GNNAGTFNN showed 190 pM (6 of 6 replicates; controls 1 of 18).
Variant GFDLDEYGIS / VIYADGMRTAYADSVK / GSNAGTFDT showed 1.6 nM (6 of 6 replicates; controls 0 of 18).
Variant GKGLDEYGVS / VIYADGKRHSYVDDVK / GGIAGQFLV showed nd (0 of 6 replicates; controls 0 of 18).
Variant GFNINEYGIS / VIYADGLRVQYIDSVK / GNASIFGLD showed nd (0 of 6 replicates; controls 0 of 18).
Variant GFDLNEYGIS / VIYADGRRTAYADKVK / GNQAGTFDV showed 490 pM (6 of 6 replicates; controls 0 of 18).
Variant GFNLDEYGIS / VIYADGRRTFYADSVK / GQVAGTFDQ showed 240 pM (6 of 6 replicates; controls 1 of 18).
Variant GFDLNEYGIS / VIYADGMRTYYADSVK / GNNAGTFDQ showed 500 pM (6 of 6 replicates; controls 0 of 18).
Variant GFDLNEYGIS / VIYADGMRTAYADSVK / GNHAGTFDV showed 300 pM (6 of 6 replicates; controls 0 of 18).
Variant GFQLDEYGIS / VIYADGRRTAYQDSVK / GEVAGTFDS showed 1.8 nM (6 of 6 replicates; controls 0 of 18).
Variant GFDLNEYGIS / VIYADGRRTAYADDVK / GENAGTFDL showed 300 pM (6 of 6 replicates; controls 0 of 18).
Variant GFDLNEYGIS / VIYADGIRTAYSDQVK / WMDGIVILF showed nd (0 of 6 replicates; controls 0 of 18).

For reference, 2 entries of the list once more:

Variant GFDLNEYGIS / VIYADGVRTAYLDSVK / GEAAGTFDS showed 370 pM (6 of 6 replicates; controls 0 of 18).
Variant GFDLNEYGIS / VIYADGRRTAYADDVK / GEVAGTFDV showed 360 pM (6 of 6 replicates; controls 0 of 18).

The authors' rule: three or more of the six replicates give a measured affinity, fewer mean a poor binder. Values of this round are not directly comparable with the first-round values of the same sequences. The parent sequence was in this pool as ten entries: three were never detected, three once, and four in most replicates, with averages from 2.2 nM to 240 nM. Three control strains display no target. For all heavy chain designs, 1% of the pairings with them gave a signal, with a median of 120 nM and one signal in twenty below 7.0 nM, so weak values seen in few replicates may be background. Also given: how often the same scFv was detected with the empty control strains.

Reference: Li et al. 2023, doi:10.1038/s41467-023-39022-2. File: FLAb, binding data.